Data: patent US11396497B2, “Proteasome inhibitors” (New Mexico Tech University Research Park Corporation, priority 2018, dated 2022)

Protein sequences, listed by entry. Tags and fused reporters are not part of them. Residues count along the entry.
UniProt P28074, 60-263: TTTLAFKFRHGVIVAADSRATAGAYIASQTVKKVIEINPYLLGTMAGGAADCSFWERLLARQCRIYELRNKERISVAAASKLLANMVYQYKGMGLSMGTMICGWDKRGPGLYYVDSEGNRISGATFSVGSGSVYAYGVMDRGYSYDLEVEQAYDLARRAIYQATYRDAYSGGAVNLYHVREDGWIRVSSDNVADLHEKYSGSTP

Target: T1, chymotrypsin-like activity of the 26S proteasome (Homo sapiens, UniProt P28074)
T1 construct: endogenous in cells; host or cells: Jurkat (ATCC TIB-152, E6-1 clone) cell lysate
Assay: Proteasome assay, chymotrypsin-like (ChT-L) activity, Suc-LLVY-AMC, Jurkat cell lysate
Type: biochemical
Method: The lysate was stored at −80° C. until the sample was used for the proteasome assay.
The compounds were diluted with lysis buffer; 10 μL of the compound-containing solution was added to the test wells at ten times the final concentration. […] The results are reported as the average of at least 3 technical replicates of IC50 values for proteasome inhibition.

CC[C@H](C)[C@@H]1C(=O)O[C@H]1C(=O)NCC(=O)N[C@H](C(=O)OCc1ccccc1)C(C)C [Compound 10a, Benzyl ((2R,3S)-3-((S)-sec-butyl)-4-oxooxetane-2-carbonyl)glycyl-L-valinate]
subunit selectivity, ChT-L over T-L (in words): reduced selectivity
